## Antibody variant affinities, Ab-14 heavy chain, assay B

Values reported by Li et al. 2023, doi:10.1038/s41467-023-39022-2 (FLAb copy).

Target peptide (SARS-CoV-2 spike, HR2 region): PDVDLGDISGINAS

Parent: Ab-14, a human scFv built as VH, the linker GGGGSGGGGSGGGGS, VL. Only the CDRs of the heavy chain vary.
VH: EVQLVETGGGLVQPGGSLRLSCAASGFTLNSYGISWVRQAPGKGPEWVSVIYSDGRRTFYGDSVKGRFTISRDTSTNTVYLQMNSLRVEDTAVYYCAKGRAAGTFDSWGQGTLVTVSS
VL: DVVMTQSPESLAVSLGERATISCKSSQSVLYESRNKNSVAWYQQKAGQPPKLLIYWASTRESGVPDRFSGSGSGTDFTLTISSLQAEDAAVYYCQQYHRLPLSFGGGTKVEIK

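Phage display of a naive human antibody library on the peptide gave the parent. These sequences belong to a second round, designed from the earlier measurements on random variants of the parent. Group labels follow the data file (Ctrl: baseline library sampled from a position-specific scoring matrix, with some repeated check sequences; GPLM: also part of the Gaussian process libraries; Gibbs: Gibbs sampling; a sequence that several methods proposed may carry one label only). Affinity was read by AlphaSeq, a pooled yeast mating assay with surface-displayed partners. After mating in shaken culture at 30 °C for 16 h, diploids were selected and their barcode pairs sequenced. Each replicate has its own calibration line, from reference interactions of the BCL2 family. There are six technical replicates.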

Each variant is given by its three heavy chain CDRs, as the data file delimits them; those of the parent are GFTLNSYGIS, VIYSDGRRTFYGDSVK, GRAAGTFDS.
The read-out is the apparent dissociation constant on a log10 scale (nM): the lower, the stronger.
A mean of the replicates is given; it leaves out those without a signal.
"n.d." marks a missing value. The strain was present, yet no cells mated with the target were sequenced in that replicate, which points to weak or no binding.
The authors averaged sequences with at least three values out of six and counted those with two or fewer as poor binders.
Background: pairings of all heavy chain designs with three empty control strains gave a value in 1% of cases (median 2.08, 5th percentile 0.84). Values in that range, when seen in few replicates, are hard to tell from nonspecific mating. For each scFv, signals with the empty controls are counted beside the result, with their mean in brackets.
A sequence that the file lists under several names has all its replicates listed entry by entry, parted by semicolons.
A sequence measured in both rounds can read differently, since the two assays cover different ranges.

| CDR-H1 | CDR-H2 | CDR-H3 | group | log10 Kd, replicates | mean, log10 nM | control signals |
|---|---|---|---|---|---|---|
| GFNLNMYGIS | VIYSDGQRTFYGDSVK | GRAAGTFEV | Ctrl | 2.02 n.d. n.d. n.d. n.d. n.d. | 2.02 | 0/18 |
| GFELNSYGIS | VIYSDGRRTFYGDSVK | GRTYGTFPQ | Ctrl | n.d. 1.09 1.54 2.45 0.98 1.67 | 1.55 | 0/18 |
| GETLNSYGIS | VIYSDGRRTFYGDSVS | GRAAGTFDS | Ctrl | n.d. n.d. n.d. n.d. n.d. 2.38 | 2.38 | 0/18 |
| GFTLNSYGIS | VIYSDGRRTFYSDQVK | GRAAGTFSS | Ctrl | n.d. n.d. n.d. n.d. n.d. n.d. | n.d. | 0/18 |
| GDTLNSYGIS | VIYSDGRRTAYGDSVK | GRAAGTFDS | Ctrl | 0.29 0.51 0.08 3.20 0.71 0.26 | 0.84 | 0/18 |
| GLTLNSYGIS | VIYADGMRTFYGDSVK | GRAAGPFDS | Ctrl | n.d. n.d. n.d. n.d. 2.87 n.d. | 2.87 | 0/18 |
| GFTLNSYGIS | VIYSDGRRTAYGDSVK | GRWADTFDS | Ctrl | n.d. n.d. n.d. n.d. n.d. n.d. | n.d. | 0/18 |
| GFQLNEYGIS | VIYSDGRRTFYGDSVK | GRAAGTFDS | Ctrl+GPLM_Gibbs | 0.52 0.49 -0.01 0.09 -0.10 0.24; n.d. n.d. 0.63 n.d. 1.98 1.36 | 0.58 | 0/36 |
| GHTLNEYGIS | VIYSDGRRTMYGDSVK | GRAAGTFDS | Ctrl | 1.08 1.04 0.83 1.26 1.81 0.66 | 1.11 | 0/18 |
| GFTLNSYGIS | VIYSDGRRTFYGDSVK | GRAAGTYDY | Ctrl | n.d. 1.13 1.57 2.05 n.d. 2.43 | 1.80 | 0/18 |
| GFPLNSYGIS | VIYSDGRRTSYGDSVK | GRAAGTFDS | Ctrl | 1.67 1.95 n.d. 1.55 1.97 2.45 | 1.92 | 0/18 |
| GFTLNSYGIS | VIYSDGRRTFYGDSVR | GTAAGTFDS | Ctrl | n.d. n.d. 0.00 n.d. 0.25 0.45 | 0.23 | 0/18 |
| SFTLNEYGIS | VIYSDGRRTFYGDSVK | GSAAATFDS | Ctrl | n.d. n.d. n.d. n.d. n.d. n.d. | n.d. | 0/18 |
| GTELNSYGIS | VIYSDGRRTFYGDSVK | GRAAGTFLS | Ctrl | n.d. n.d. n.d. n.d. n.d. 3.56 | 3.56 | 0/18 |
| GFTLNSYGIS | VIYSDGRRTFYADSVK | GRAAGTFDW | Ctrl | n.d. 1.42 n.d. 1.57 1.14 1.63 | 1.44 | 1/18 (2.22) |
| GFRLNSYGIS | VIYSDGRRTFYGDSVK | GKAAGTFPS | Ctrl | n.d. n.d. n.d. n.d. n.d. n.d. | n.d. | 0/18 |
| GFSLNSYGIS | VIYSDGRRTSYGDSVK | GRAAGTFDS | Ctrl | 0.95 1.07 0.86 0.75 0.83 0.87 | 0.89 | 0/18 |
| GFTLNSYGIS | VIYSDGMRTFYGDSVK | LRAAGAFDS | Ctrl | n.d. n.d. n.d. n.d. 3.12 n.d. | 3.12 | 1/18 (3.47) |
| QFTLNSYGIS | VIYSDGRRTAYIDSVK | GRYAGTFDS | Ctrl | 1.17 1.54 0.68 0.80 1.55 1.47 | 1.20 | 0/18 |
| GFALESYGIS | VIYSDGRRTFYGDSVK | DRAAGAFDS | Ctrl | n.d. n.d. n.d. n.d. n.d. n.d. | n.d. | 0/18 |
| GFTLNSYGIS | VIYSDGRRTFMGDSVK | NRAAGTFDP | Ctrl | n.d. n.d. n.d. n.d. n.d. n.d. | n.d. | 0/18 |
| GDTLNSYGIS | VIYSDGRRTFIGDSVK | GRAAGTFDL | Ctrl | n.d. n.d. n.d. n.d. n.d. n.d. | n.d. | 0/18 |
| GFTLNSYGIS | VIYSDGRRTFYGDSVK | ERAKCTFDS | Ctrl | n.d. 1.40 n.d. 3.43 n.d. 1.83 | 2.22 | 1/18 (0.71) |
| GFTLNSYGIS | VIYADGLRTFYGDSVK | GRAYGTNDS | Ctrl | 0.26 -0.20 0.22 0.35 0.59 0.25 | 0.24 | 0/18 |
| GFTLNSYGIS | VIYSDGRRTFYGDFVK | GRAAGTFDS | Ctrl | n.d. n.d. n.d. n.d. n.d. n.d. | n.d. | 1/18 (3.12) |
| GESLNSYGVS | VIYSDGRRTFYGDSVK | GRAAGTFVY | Ctrl | n.d. n.d. n.d. n.d. n.d. n.d. | n.d. | 0/18 |
| GFQLNEYGIS | VIYSDGRRTFYGDSVK | GRLAGTFDS | Ctrl | 0.38 0.57 -0.01 0.26 0.65 0.64 | 0.42 | 0/18 |
| VFTLNSYGIS | VIYADGRRTAYGDSYK | GRAAGTFDS | Ctrl | n.d. n.d. n.d. n.d. n.d. n.d. | n.d. | 0/18 |
| GFTLNSYGIS | VIYSDGRRTFYGDSVK | GRAAGGFDS | Ctrl | n.d. n.d. n.d. n.d. 2.20 n.d. | 2.20 | 0/18 |
| GFTLNSYGIS | VIYSDGRRTFYGDSVK | GELAGTFDV | Ctrl | 1.11 0.43 0.53 0.98 1.14 0.09 | 0.71 | 1/18 (1.85) |
| GFTLGSYGIS | VIYSDGRRTFYIDSVK | GNAAGTFDS | Ctrl | n.d. n.d. n.d. n.d. n.d. n.d. | n.d. | 0/18 |
| GFWLNSYGIS | VIYFDGWRTFYGDSVK | GRAAGAFDS | Ctrl | n.d. n.d. n.d. 1.51 n.d. n.d. | 1.51 | 0/18 |
| GFTLNSYGIS | VIYSDGRRTFYGDSVK | HRAVGTFHS | Ctrl | n.d. n.d. n.d. n.d. n.d. n.d. | n.d. | 0/18 |
| GFTPESYGIS | VIYSDGRRTFYGDSVR | GRAAGTFKS | Ctrl | n.d. n.d. n.d. n.d. n.d. n.d. | n.d. | 0/18 |
| GFTLDSYGIS | VIYSDGSRTFYGDSVK | GRPAGTFDS | Ctrl | 2.71 n.d. 1.96 3.23 2.87 3.79 | 2.91 | 0/18 |
| GFTLNSYGIS | VIYSDGRKTFYQDSVK | GRAAGTFDS | Ctrl | n.d. n.d. n.d. n.d. n.d. 2.04 | 2.04 | 0/18 |
| GFTLNSYGIS | VIYSDGRRTFYQDSVK | GREAGTFDS | Ctrl | n.d. 0.96 0.60 0.25 0.50 0.76 | 0.61 | 1/18 (1.39) |
| GTTLKSYGIS | VIYSDGRRTFYGDSVK | GRAAGTFDS | Ctrl | n.d. n.d. n.d. n.d. n.d. n.d. | n.d. | 0/18 |
| GFCLNSYGIS | VIYSDGRRTFYGDSVK | GRAAGTFDR | Ctrl | n.d. n.d. n.d. n.d. n.d. n.d. | n.d. | 0/18 |
| GFTLTSYGIS | VIYSDGRRTFYGDSVK | GSAAGTNDS | Ctrl | n.d. n.d. n.d. n.d. n.d. n.d. | n.d. | 0/18 |
| GFTLNSGGIS | VIYSDGRRTFYGDSVK | GRAAGTFDV | Ctrl | n.d. n.d. n.d. n.d. n.d. n.d. | n.d. | 1/18 (1.24) |
| GFTLLSYGIS | VIYSDGRRVFYGDSVK | GRVAGTFDM | Ctrl | n.d. n.d. n.d. 0.90 n.d. n.d. | 0.90 | 0/18 |
| GFTLNSYGIS | VIYSDGRRTAYGDSVK | LQPAGTFDS | Ctrl | n.d. n.d. n.d. n.d. n.d. n.d. | n.d. | 1/18 (0.63) |
| GFTLESYGIS | VIYSDGRRTFYGDSVK | GRIAGTFDS | Ctrl | 2.03 1.47 1.14 1.41 1.61 1.45 | 1.52 | 1/18 (2.66) |
| GFTLNNYGIS | VIYSDGERTFYHDSVK | GRAAGTFLS | Ctrl | n.d. n.d. n.d. n.d. n.d. n.d. | n.d. | 0/18 |
| GETLNSYGIS | VIYSDGRRTFYGDNVK | ARAAGTFDS | Ctrl | n.d. n.d. n.d. n.d. n.d. n.d. | n.d. | 1/18 (1.06) |
| GFTLNSYGIS | VIYSDGRRTFYSDSVR | GREAGTFDS | Ctrl | 0.66 -0.39 0.08 -0.18 0.15 0.11 | 0.07 | 0/18 |
| GFELNSYGIS | VIYSDGRRTFYSDSVK | GDAAGTFDS | Ctrl+GPLM_Gibbs | 1.31 0.28 0.82 1.19 0.71 0.54; 0.50 0.45 0.20 0.18 0.40 0.66 | 0.60 | 0/36 |
| GFTLNSYGIS | VIYSDGRRTFYGDAVK | GQAAGTFRS | Ctrl | n.d. n.d. n.d. n.d. n.d. n.d. | n.d. | 0/18 |
| GFTLNSYGIS | VIYSDGRRTFYGDSVK | GRAAGIFDS | Ctrl | n.d. n.d. n.d. n.d. n.d. n.d. | n.d. | 0/18 |
| GFDLNDYGIS | VIYSDGRRTFYGDSVK | GRAAGTFDS | Ctrl | 0.43 0.18 0.09 0.36 0.34 -0.08 | 0.22 | 0/18 |

Extract of 4 entries:

CDR-H1	CDR-H2	CDR-H3	group	log10 Kd, replicates	mean, log10 nM	control signals
GFALESYGIS	VIYSDGRRTFYGDSVK	DRAAGAFDS	Ctrl	n.d. n.d. n.d. n.d. n.d. n.d.	n.d.	0/18
GFTLNSYGIS	VIYSDGRRTFMGDSVK	NRAAGTFDP	Ctrl	n.d. n.d. n.d. n.d. n.d. n.d.	n.d.	0/18
QFTLNSYGIS	VIYSDGRRTAYIDSVK	GRYAGTFDS	Ctrl	1.17 1.54 0.68 0.80 1.55 1.47	1.20	0/18
GFTLNSYGIS	VIYSDGRRTFYGDSVK	GRAAGTYDY	Ctrl	n.d. 1.13 1.57 2.05 n.d. 2.43	1.80	0/18